# Measurements: patent publication US20080219962A1, “Method to Enhance the Bone Formation Activity of Bmp by Runx2 Acetylation” (BIORUNX CO., LTD., priority 2005, published 2008)
# B1: BMP-2: bone morphogenetic protein-2, bone formation factor added to cells (protein, UniProt P12643 283-396, looked up)
# Bone morphogenetic protein 2: QAKHKQRKRLKSSCKRHPLYVDFSDVGWNDWIVAPPGYHAFYCHGECPFPLADHLNSTNHAIVQTLVNSVNSKIPKACCVPTELSAISMLYLDENEKVVLKNYQDMVVEGCGCR
# Tests used:
# Type in all cases: cell-based
# [1] = tested on: Runx2; assay: Western blot of myc-tagged Runx2 protein level in C2C12 cells with or without BMP-2; conditions: C2C12 cells transfected with myc-tagged Runx2, 300 ng/l BMP-2; FIG. 1
# Method: (§1) After confirming that Runx2 is a major target of BMP-2 signaling pathway and BMP-2 regulates transcription level of Runx2 (Lee K. S et al. Mol. Cell. Biol. 20:8783-879, 2000), the present inventors investigated whether BMP-2 regulates post-transcription level of Runx2 as well. Particularly, C2C12 pluripotent mesenchymal precursor cells were transfected with myc-tagged Runx2 in the presence or absence of 300 ng/l of BMP-2, followed by Western blotting using anti-myc antibody. As a result, the level of Runx2 protein was much higher in BMP-2 treated cells (FIG. 1). The result was confirmed by co-expression of HA-tagged Runx2 and increasing amount of BMP receptor 1 (BMPR1) of 0, 0.25, 0.5, 1 and 2 μg. That is, the level of Runx2 increases with proportion to the amount of BMPR1 (FIG. 2). […] To eliminate the possibility of BMP-2 mediated transcriptional activity of the transfected Runx2 gene, the present inventors measured the level of Runx2 by BMP-2 transcriptional activity using quantitative RT-PCR. […] To quantify endogenous Runx2 level, primers represented by SEQ. […] Following quantitative RT-PCR, PCR products were collected (1/20 of reaction mixture) from several reaction cycles (from 25 to 30), and fragments were separated using agarose gel electrophoresis.
# [2] = tested on: Runx2 mRNA; assay: Semi-quantitative RT-PCR of endogenous and exogenous Runx2 mRNA in 293 cells; conditions: FIG. 4
# Method: as §1
# [3] = tested on: Runx2; assay: Runx2 acetylation: immunoprecipitation with anti-acetyl-lysine antibody, Western blot with anti-myc antibody; conditions: C2C12 cells transfected with myc-tagged Runx2, presence or absence of BMP-2 and p300; FIG. 5
# Method: Following transfection, the C2C12 and 293 cells were lysed in ice-cold cell lysis buffer (25 mM HEPES (pH 7.5), 150 mM NaCl, 1% NP-40, 0.25% Na deoxycholate, 10% glycerol, 25 mM NaF, 1 mM EDTA, 1 mM Na3VO4, 250 μM phenylmethylsulfonyl fluoride, 10 μg/ml leupeptin, 10 μg/ml aprotinin) and cleared by centrifugation. The resulting supernatants were immunoprecipitated with the appropriate primary and secondary antibodies, and protein A- or protein G-Sepharose beads (Amersham) for 4 hours. All incubations were conducted at 4° C. The Sepharose beads were washed extensively and bound proteins were separated using SDS-PAGE, and then transferred to PVDF membranes. The membranes were incubated with the appropriate antibodies, washed, and then incubated with horseradish peroxidase-coupled secondary antibodies. After washing, the reactive proteins were visualized with an enhanced chemiluminescence (ECL) reagent (Amersham Biosciences).
# For HDAC inhibitor treatments, both C2C12 and 293 cells were cultured in fresh medium for 1 day following transfection, and then treated with the inhibitors (Tricostatin A (TSA), CHAP and SCOP) for 16 h, at the specified concentrations according to the methods of Komatsu et al (Cancer Res. 61:4459-4466, 2001) and Nishino et al (Nishino N. et al., Org. Lett. 5: 5079-5082, 2003). […]
molecule,measurement,setting,value
B1,level of Runx2 protein,[1],much higher
same,endogenous Runx2 mRNA level,[2],increased
same,exogenous Runx2 mRNA level,[2],not changed
same,Runx2 acetylation,[3],acetylated
